# Data taken from US11173193B2, “Immunobiological products” (priority 2016, dated 2021).
# Test: Solubility of hydro-colloid and chitosan
# Type: physicochemical
# Method: Test solution: An adequate sample of Chitosan HCl, Chitosan-HAc, Chitosan, Chitosan-Valeric acid-Hydro Colloid and valeric acid, respectively was dissolved in the solvent above. This mixture was shacked and afterwards sonified in an ultrasonic bath for 5 min.
# Sample: Chitosan suspended in water
# Result: An acceptable solution of Chitosan in waterish or organic solvents like Methanol etc. is not possible. A suitable solubilization of Chitosan is only possible in stronger acids like HCl or HAc under production of Chitosan HCl or Chitosan HAc.
substance,measurement,value
Chitosan-Valeric acid-Hydro-Colloid,Solubility in water,soluble in: Water
